The data set can be described thus: Solubility of lab-made phthalocyanines in organic solvents. In kind it is physicochemical.

Regarding Cu tetra-t-butyl-phthalocyanine [CuPc], the solubility entry is, setting by setting: (acetone) “Δ (hardly soluble (<1 wt. %))”; (methanol) “Δ (hardly soluble (<1 wt. %))”.
For the substance “Central Metal-free tetra-t-butyl-phthalocyanine [Example H2Pc]”, the solubility entry runs as follows: (THF) “Δ (hardly soluble (<1 wt. %))”; (acetone) “Δ (hardly soluble (<1 wt. %))”; (methanol) “Δ (hardly soluble (<1 wt. %))”; (n-hexane) “Δ (hardly soluble (<1 wt. %))”; (toluene) “Δ (hardly soluble (<1 wt. %))”.
Turning to Zn-tetra-t-butyl-phthalocyanine [ZnPc], the solubility result reads like this: (THF) “⊚ (soluble (>3 wt. %))”; (acetone) “Δ (hardly soluble (<1 wt. %))”; (n-hexane) “◯ (slightly soluble (1 wt. % ˜ 3 wt. %))”; (toluene) “⊚ (soluble (>3 wt. %))”.

For the origin of these results see patent US20030010621A1, “NOVEL SYNTHESIS OF PHTHALOCYANINES BY MICROWAVE IRRADIATION” (priority 2001, published 2003).
